For experiment [1], the target named is T1, Pim3 kinase (Homo sapiens (Human), UniProt Q86V86). As to the kind of experiment: biochemical.
A further experiment concerns the target Pim1 kinase (Homo sapiens (Human), UniProt P11309). The experiment in a line: biochemical.
For experiment [2], the target named is T1, Pim3 kinase. The following applies: read-out: Pim3 IC50.

Chains of the proteins cited; added tags and fusions are not shown.
UniProt P11309, whole entry: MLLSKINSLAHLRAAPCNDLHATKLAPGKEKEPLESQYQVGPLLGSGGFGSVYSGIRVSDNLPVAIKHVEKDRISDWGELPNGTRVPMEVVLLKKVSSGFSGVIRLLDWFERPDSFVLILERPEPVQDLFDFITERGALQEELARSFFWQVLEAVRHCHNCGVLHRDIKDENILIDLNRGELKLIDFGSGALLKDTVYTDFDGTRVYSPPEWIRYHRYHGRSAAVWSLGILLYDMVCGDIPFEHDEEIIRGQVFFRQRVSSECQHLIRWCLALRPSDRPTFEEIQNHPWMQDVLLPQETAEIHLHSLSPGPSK

Read-outs that look alike come from different tables or passages of the source.

As a reminder, the IC50 is the point on the concentration scale where inhibition reaches its midpoint. With `Cc1ccc(F)c(-c2cccc(C(=O)Nc3cnccc3[C@@H]3C[C@H](C)C[C@H](N)C3)n2)c1F` [Example 29, N-(4-((1R,3S,5S)-3-amino-5-methylcyclohexyl)pyridin-3-yl)-6-(2,6-difluoro-3-methylphenyl)picolinamide], the IC50 against Pim3 kinase [1] was 3 nM; at Pim1 kinase it was 1 nM.
Consider `C[C@@H]1C[C@H](N)C[C@H](c2ccncc2NC(=O)c2ccc(F)c([C@H]3CC[C@H](O)CC3)n2)C1` [Example 55, N-(4-((1R,3S,5S)-3-amino-5-methylcyclohexyl)pyridin-3-yl)-5-fluoro-6-((1r,4r)-4-hydroxycyclohexyl)picolinamide], for which, on Pim3 kinase [2], the IC50 was found to be 30 nM.
Consider `Nc1cc(F)c(-c2c(F)cccc2F)nc1C(=O)Nc1cnccc1[C@@H]1CC[C@H](O)[C@H](N)C1` [Example 65, 3-amino-N-(4-((1R,3R,4S)-3-amino-4-hydroxycyclohexyl)pyridin-3-yl)-6-(2,6-difluorophenyl)-5-fluoropicolinamide], for which the IC50 at Pim3 kinase [2] is 3 nM.
Regarding `Nc1ccc(C2CCCCC2)nc1C(=O)Nc1cnccc1[C@@H]1CCC[C@H](N)C1` [Example 106, 3-amino-N-(4-((1R,3S)-3-aminocyclohexyl)pyridin-3-yl)-6-cyclohexylpicolinamide], on Pim3 kinase [2], the concentration for half-maximal inhibition (IC50) stood at 14 nM.

These data come from patent US8592455B2 (priority 2008, dated 2013).
